In patent US4687773A, “(+)-N-N-propylnorapomorphine and selective limbic activity” (priority 1985, dated 1987):
Structures can show the parent of a compound that is named as a salt.

The chains behind the UniProt entries cited, without tags or fusion partners.
UniProt P20288, whole entry: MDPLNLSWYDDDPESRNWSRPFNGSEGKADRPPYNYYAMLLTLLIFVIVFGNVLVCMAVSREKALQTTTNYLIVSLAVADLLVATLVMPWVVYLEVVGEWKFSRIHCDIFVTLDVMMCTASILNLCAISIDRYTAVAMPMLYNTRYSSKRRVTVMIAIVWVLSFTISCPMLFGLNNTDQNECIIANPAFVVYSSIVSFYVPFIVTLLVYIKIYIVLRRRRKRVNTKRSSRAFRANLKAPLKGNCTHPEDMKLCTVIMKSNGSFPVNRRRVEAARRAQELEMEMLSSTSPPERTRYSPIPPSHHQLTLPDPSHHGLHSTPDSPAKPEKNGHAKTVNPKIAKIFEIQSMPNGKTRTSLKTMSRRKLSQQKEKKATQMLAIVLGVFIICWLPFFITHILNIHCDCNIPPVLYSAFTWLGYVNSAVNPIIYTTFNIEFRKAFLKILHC

Target: T1, Dopamine Receptors (Bos taurus, UniProt P20288)
T1 construct: protease-free calf caudate nuclei; from tissue; host or cells: calf caudate nucleus, membrane fraction P4
Assay: biochemical
Format: binding, calf

SMILES | IC50
CCCN1CCc2cccc3c2[C@@H]1Cc1ccc(O)c(O)c1-3 [(+)NPA, (S)-N-n-Propylnorapomorphine Hydrochloride] | 1410 nM
CCCN1CCc2cccc3c2[C@H]1Cc1ccc(O)c(O)c1-3 [(-)NPA, (R)-N-n-propylnorapomorphine] | 174 nM
